Experimental data published in article PMC7244497 (Scientific Reports, 2020).

Sequences of proteins named here, by UniProt entry; tags and fusion partners are left off.
UniProt P41143, whole entry, looked up: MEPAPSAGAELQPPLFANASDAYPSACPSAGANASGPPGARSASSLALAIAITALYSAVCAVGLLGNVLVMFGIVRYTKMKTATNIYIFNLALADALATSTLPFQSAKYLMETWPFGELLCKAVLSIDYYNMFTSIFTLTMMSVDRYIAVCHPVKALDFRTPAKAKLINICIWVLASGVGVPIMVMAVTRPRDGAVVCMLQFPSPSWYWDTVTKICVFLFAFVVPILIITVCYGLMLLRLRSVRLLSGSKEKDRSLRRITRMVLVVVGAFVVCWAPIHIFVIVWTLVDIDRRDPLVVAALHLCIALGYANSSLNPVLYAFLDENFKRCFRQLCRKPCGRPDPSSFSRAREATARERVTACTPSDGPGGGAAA

What was measured:
HA-hDOP receptor [1] = biological target: T1, HA-hDOP receptor (Homo sapiens, UniProt P41143); assay: DOP receptor internalization (confocal microscopy and cell-surface ELISA) in HEK293 cells; details: 10 µM for 30 min at 37 °C
HA-hDOP receptor [2] = biological target: T1, HA-hDOP receptor; assay: Western blot of DOP receptor phosphorylation at T361 and S363 with phosphosite-specific antibodies in HEK293 cells; details: 10^-9 to 10^-5 M for 10 min at 37 °C
HA-hDOP receptor [3] = biological target: T1, HA-hDOP receptor; assay: Fluorescence-based membrane potential assay (GIRK channel activation); assay type: cell-based; details: AtT-20 cells stably expressing HA-hDOP receptor

With CO[C@]12CC[C@@]3(C[C@@H]1[C@](C)(O)C(C)(C)C)[C@H]1Cc4ccc(O)c5c4[C@@]3(CCN1)[C@H]2O5 the “Agonist-induced DOP receptor internalization” value (HA-hDOP receptor [1]) was “receptor internalization were detectable”, the “Agonist-induced DOP receptor phosphorylation at T361 and S363” value (HA-hDOP receptor [2]) was “Robust phosphorylation” and the “Emax in % of DPDPE” value (HA-hDOP receptor [3]; GIRK channel activation) was 56.3%. The “Emax, GIRK channel activation” value (HA-hDOP receptor [3]; membrane potential assay (Fig. 5 axis: RFU)) was 15.3 ± 1.50 and the EC50 (HA-hDOP receptor [3]; read-out: EC50, GIRK channel activation, membrane potential assay, mean ± SEM, three independent experiments) was 43.8 nM.
